Tests used:
[1] = system: AMPA receptor subunits GluR1-4 and kainate receptor subunit GluR5; settings: cited from earlier work
platelets = experiment: Intracellular sodium in platelets (SBFI dye, FACS); assay type: cell-based, human; settings: AMPA 1 mM; TRAP
Method: (§1) Human platelets were isolated from healthy volunteers who had not taken aspirin or NSAID within 10 d, under a protocol approved by The Johns Hopkins University School of Medicine Institutional Review Board (JCCI). Blood was collected into citrate anticoagulant, platelets were isolated as platelet rich plasma (PRP) by centrifugation at 180 g for 15 min, and then diluted in Tyrode's buffer 1:20 for activation flow cytometry studies. To determine surface GluR1, a Fc Blocking antibody was added to reduce non-specific background antibody binding. Mouse platelets were isolated by collection into heparinized Tyrode's buffer and isolated by centrifugation. Washed platelets were resuspended in Tyrode's. Intracellular ion concentrations were performed after incubating platelets diluted 1:20 in Tyrode's buffer with SBFI for 45 minutes prior to experiments.

mouse platelets = experiment: Activation of platelets from WT and GluR1-/- mice (surface P-selectin); assay type: cell-based; settings: AMPA 1 mM, thrombin 0.25 U/mL
Method: The functional relevance of platelet AMPAR was explored by isolating platelets from wild-type (WT) and GluR1 subunit knockout mice (GluR1−/−). Platelets from each type of mouse were incubated with vehicle or AMPA (1 mM), and then activated or not with thrombin (0.25 U/mL). Unstimulated platelets from WT and GluR1−/− mice have similar levels of activation, as measured by P-selectin localized to the platelet surface membrane (FIG. 4 D). However, WT platelets stimulated with thrombin have a greater increase in P-selectin externalization than GluR1−/− platelets.
as §1, with “Intracellular ion concentrations were performed after incubating platelets diluted 1:20 in Tyrode's buffer with SBFI for 45 minutes prior to experiments.” left out

For `N[C@@H](Cn1nc(I)c(=O)[nH]c1=O)C(=O)O` [5-iodo-6-azawillardiine], the “selectivity for GluR1 and 2 over GluR4 (in words)” value [1] is listed as “reversed”.
In the case of `Cc1onc(O)c1C[C@H](N)C(=O)O` [AMPA, alpha(α)-amino-3-hydroxy-5-methyl-4-isoxazolepropionic acid], the “increase of intracellular Na+ concentration upon activation compared to control” value (platelets) is reported as “approximately two times”, the “thrombin induced activation of GluR1-/- platelets (P-selectin)” value (mouse platelets; GluR1-/- mice) is reported as “but not GluR1−/− platelets” and the “thrombin induced activation of WT platelets (P-selectin)” value (mouse platelets; WT mice) is reported as “increases activation of WT platelets”.

From patent US8603980B2, “Glutamate receptor antagonists and methods of use” (The Johns Hopkins University, priority 2007, dated 2013)
